In one assay the target is Mu-type opioid receptor (Homo sapiens, UniProt P35372). Nature of the assay: Human Mu-Opioid Peptide (hMOP) Receptor Binding Assay.
The target of a further assay is Nociceptin receptor (Homo sapiens, UniProt P41146). Nature of the assay: Human Nociceptin/Orphanin FQ Peptide (hNOP) Receptor Binding Assay.

The chains behind the UniProt entries cited, without tags or fusion partners. Where a name states a change or a piece, a line headed by the entry shows the natural chain unless it says otherwise.
UniProt P35372, whole entry, looked up: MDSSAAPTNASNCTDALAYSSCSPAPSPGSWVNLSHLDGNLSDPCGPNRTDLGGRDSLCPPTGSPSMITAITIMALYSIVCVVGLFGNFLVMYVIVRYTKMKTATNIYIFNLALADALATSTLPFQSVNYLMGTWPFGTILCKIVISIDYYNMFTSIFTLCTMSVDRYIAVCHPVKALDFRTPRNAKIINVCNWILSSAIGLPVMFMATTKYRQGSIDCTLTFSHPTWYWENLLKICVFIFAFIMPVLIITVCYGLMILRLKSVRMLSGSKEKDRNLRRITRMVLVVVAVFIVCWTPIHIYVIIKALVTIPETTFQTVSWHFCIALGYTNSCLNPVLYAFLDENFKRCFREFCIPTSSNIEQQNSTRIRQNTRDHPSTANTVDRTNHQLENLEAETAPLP
UniProt P41146: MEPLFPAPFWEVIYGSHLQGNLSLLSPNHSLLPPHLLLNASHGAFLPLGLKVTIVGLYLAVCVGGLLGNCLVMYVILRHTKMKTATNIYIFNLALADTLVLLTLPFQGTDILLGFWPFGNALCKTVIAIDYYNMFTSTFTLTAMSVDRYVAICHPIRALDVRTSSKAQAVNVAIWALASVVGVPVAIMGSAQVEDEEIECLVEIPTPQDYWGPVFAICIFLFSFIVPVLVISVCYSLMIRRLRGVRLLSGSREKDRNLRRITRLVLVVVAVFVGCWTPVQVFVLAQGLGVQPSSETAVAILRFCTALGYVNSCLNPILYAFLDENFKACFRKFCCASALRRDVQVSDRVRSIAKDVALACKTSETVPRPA

The text below walks through data of BindingDB's records for US10807988.

In general, Ki refers to a dissociation constant, usually derived from enzyme kinetics or from competition with a known ligand. Lower therefore signals higher affinity. On to `CN(C)[C@]1(c2ccccc2)CC[C@]2(CC1)CN(c1ccc(S(C)(=O)=O)nc1)C(=O)N2CC1CC1`, for which the Ki was 97 nM at Mu-type opioid receptor and 2 nM on Nociceptin receptor.

On to `Cc1cc(C(F)(F)F)ncc1N1C[C@]2(CC[C@](c3ccccc3)(N(C)C)CC2)N(CC2CCC2)C1=O`, for which the figures for the Ki on Mu-type opioid receptor and at Nociceptin receptor were 1 nM and 7 nM, respectively.

As for `CN(C)[C@]1(c2ccccc2)CC[C@]2(CC1)CN(c1cnc(N3CCNCC3)nc1)C(=O)N2CC1(O)CCC1`, the inhibition constant Ki on Mu-type opioid receptor and on Nociceptin receptor was 1 nM in each case.
